For one substance, IC50 results are on record in patent US7371739B2, “Aryl fructose-1,6-bisphosphatase inhibitors” (Metabasis Therapeutics, Inc., priority 2000, dated 2008).

The target in the experiment is T1, human liver FBPase (Homo sapiens, UniProt P09467).
T1 sequence (P09467 2-338 limits assumed): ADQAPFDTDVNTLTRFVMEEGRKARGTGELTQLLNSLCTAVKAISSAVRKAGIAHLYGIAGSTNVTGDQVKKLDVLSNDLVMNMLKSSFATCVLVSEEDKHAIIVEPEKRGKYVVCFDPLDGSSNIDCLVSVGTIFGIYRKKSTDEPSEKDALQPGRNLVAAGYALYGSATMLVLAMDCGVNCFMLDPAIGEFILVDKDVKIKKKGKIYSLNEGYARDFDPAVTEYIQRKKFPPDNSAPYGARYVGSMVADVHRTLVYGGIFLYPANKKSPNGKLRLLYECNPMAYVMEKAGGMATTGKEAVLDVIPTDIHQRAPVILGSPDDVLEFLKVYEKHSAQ
Put plainly: Inhibition of Human Liver FBPase. The settings on record: read-out: Human Liver FBPase IC50; recombinant hlFBPase, 0.150 mM fructose-1,6-bisphosphate, pH 7.4, 37° C.

As usually defined, the pIC50 is the IC50 on a negative log10 scale, so that one unit is a factor of ten.

pIC50: −log10 of the molar value.

“N-(Diethylphosphonomethyl)-2-amino-3-chlorobenzamide [Compound 9.01]”: the negative-log IC50 (pIC50) was 4.22.
